From PubChem BioAssay (NCI)
The entries are a selection whose mix differs from that of the whole data set. Some salts and complexes are drawn in separate pieces, as the source files them; their charges need not balance. The source made the active and inactive calls. Cut-off read from the data, not from the text of the source: active = growth inhibition above about 70%; inactive = the rest.

How the values were obtained:
[1] = NCI Yeast Anticancer Drug Screen. Data for the rad50 strain (AID 155);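 note: 0% = growth of vehicle-only cultures of the same strain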; conditions: S. cerevisiae rad50 strain growth inhibition; at 50.0 µM; stronger effect = higher value
[2] = NCI Yeast Anticancer Drug Screen. Data for the mec2-1 strain (AID 157); conditions: S. cerevisiae mec2-1 strain, at 50.0 µM, stronger effect = higher value
[3] = NCI Yeast Anticancer Drug Screen. Data for the sgs1 mgt1 strain (AID 161);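 note: 0% = growth of cultures given vehicle only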; conditions: S. cerevisiae sgs1 mgt1 strain, at 50.0 µM, stronger effect = higher value
[4] = NCI Yeast Anticancer Drug Screen. Data for the cln2 rad14 strain (AID 165);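 note: 0% = growth equal to vehicle treated cultures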; conditions: S. cerevisiae cln2 rad14 strain, at 50.0 µM, stronger effect = higher value
[5] = NCI Yeast Anticancer Drug Screen. Data for the bub3 strain (AID 167); conditions: S. cerevisiae bub3 mutant strain, at 50.0 µM, stronger effect = higher value
[6] = NCI Yeast Anticancer Drug Screen. Data for the mlh1 rad18 strain (AID 175); conditions: S. cerevisiae mlh1 rad18 strain growth inhibition; at 50.0 µM; stronger effect = higher value

Measured: growth inhibition

CC(C)OP(C)(O)=S.CC(N)c1ccccc1 (centres undefined)
inactive: [1] -8.65% | [2] -19.1% | [3] -6.35% | [4] -1.25% | [5] -16.7% | [6] -13.4%

CC1=CC(C)(C)N=C(N)N1.O=[N+]([O-])c1cc([N+](=O)[O-])c(O)c([N+](=O)[O-])c1
inactive: [1] 1.2% | [2] -4.65% | [3] -4.1% | [4] -2.1% | [5] 7.1% | [6] 16.1%

CCCCC(CC)COP(O)OCC(CC)CCCC.[Cd] (centres undefined)
inactive: [1] 22.3% | [2] 14.1% | [3] 19.8% | [4] -70.6% | [5] 17.3% | [6] 41%

CCN(CC(C)O)C1CCCCC1.O=[N+]([O-])c1cc([N+](=O)[O-])c(O)c([N+](=O)[O-])c1
inactive: [1] 42.9% | [2] 13.1% | [3] 36.6% | [4] -3.6% | [5] 1.7% | [6] 18.8%

O=[N+]([O-])Nc1ccc(N[N+](=O)[O-])nn1
inactive: [1] 0.95% | [2] 8.85% | [3] 11.6% | [4] -32.9% | [5] 7.05% | [6] -14.7%

CC(C)OP(C)(=O)O.[Ti]
inactive: [1] -7.9% | [2] -16.9% | [3] -8.9% | [4] -40.5% | [5] -19.4% | [6] -13.2%

CCOP(C)(=O)OC(C(F)(F)F)C(F)(F)F (centres undefined)
inactive: [1] -66.2% | [2] 2.9% | [3] -29% | [4] 8.75% | [5] 24.4% | [6] -35%

CCN(CC)CCOC(=O)C(O)(c1cccc(C)c1)c1csc2ccccc12 (centres undefined)
inactive: [1] 3.65% | [2] 8.35% | [3] -11.7% | [4] -19.9% | [5] 5.2% | [6] 18.4%

CN(N)P(=O)(Cl)C(Cl)(Cl)Cl (centres undefined)
inactive: [1] 6.7% | [2] -0.7% | [3] 4.3% | [4] -3.1% | [5] 3.35% | [6] 11.3%

CCCCN=C(N)C(N)=NCCCC.O=[N+]([O-])c1cc([N+](=O)[O-])c(O)c([N+](=O)[O-])c1
inactive: [1] 13.2% | [2] 7.1% | [3] 10.8% | [4] -3.45% | [5] 3.25% | [6] 26.2%

CCN(CC)C1C=CCCC1.O=[N+]([O-])c1cc([N+](=O)[O-])c(O)c([N+](=O)[O-])c1
inactive: [1] 24.2% | [2] 7.3% | [3] 23.6% | [4] -4.95% | [5] -0.85% | [6] 17.2%

CCC(CC)NC(C)CO.O=[N+]([O-])c1cc([N+](=O)[O-])c(O)c([N+](=O)[O-])c1
inactive: [1] 14.7% | [2] -12% | [3] -4.65% | [4] -37% | [5] -10.9% | [6] 8.75%

CP(=O)(O)O.[Cu+2]
inactive: [1] -6.2% | [2] -9.55% | [3] -4.45% | [4] -45.1% | [5] -46.5% | [6] -6.6%

CC(=O)C(CN(C)C)CN(C)C.O=[N+]([O-])c1cc([N+](=O)[O-])c(O)c([N+](=O)[O-])c1
inactive: [1] 26.4% | [2] 14% | [3] 5.7% | [4] -5.25% | [5] 5.8% | [6] 28.8%

CC(C)N1C(C)C1C.O=[N+]([O-])c1cc([N+](=O)[O-])c(S(=O)(=O)O)c([N+](=O)[O-])c1
inactive: [1] 39.9% | [2] 19.1% | [3] 58.8% | [4] 39.2% | [5] 28.4% | [6] 18.7%

CN([PH+](F)F)[PH+](F)F.CN([PH+](F)F)[PH+](F)F.CN([PH+](F)F)[PH+](F)F.CN([PH+](F)F)[PH+](F)F.CN([PH+](F)F)[PH+](F)F.[Ni].[Ni]
inactive: [1] 24.6% | [2] 5.55% | [3] 8.75% | [4] 18.4% | [5] 12.6% | [6] 4.2%

CCOC(=O)COCN(CN(CN(COCC(=O)OCC)[N+](=O)[O-])[N+](=O)[O-])[N+](=O)[O-]
inactive: [1] -1.8% | [2] 3.25% | [3] -7% | [4] -26.4% | [5] -0.75% | [6] 20.2%

[C-]#N.[C-]#N.[C-]#N.[C-]#N.[C-]#N.[Fe+6].[NH2-]
inactive: [1] 15.4% | [2] -23.1% | [3] 9.35% | [4] 1.85% | [5] 27.6% | [6] 25.6%

COC(=O)/C(=C\c1ccccc1)CN1CCCCC1C.O=[N+]([O-])c1cc([N+](=O)[O-])c(O)c([N+](=O)[O-])c1 (centres undefined)
inactive: [1] 27.4% | [2] -5.3% | [3] 25.9% | [4] -20.9% | [5] 1% | [6] 0.2%

CN[N+](=O)[O-]
inactive: [1] -3.95% | [2] 0.65% | [3] -20.4% | [4] 19.2% | [5] 15% | [6] -2.6%

CN(C)CCCl
inactive: [1] 18.9% | [2] -4% | [3] 18.1% | [4] -1.5% | [5] -10.3% | [6] 24.4%

CCCN(CCC)C1C=CCCC1.O=[N+]([O-])c1cc([N+](=O)[O-])c(O)c([N+](=O)[O-])c1
inactive: [1] -3.55% | [2] 0.35% | [3] -2.95% | [4] -26.8% | [5] -2.5% | [6] -0.65%

CCCCNCCNCCCC.O=[N+]([O-])c1cc([N+](=O)[O-])c(O)c([N+](=O)[O-])c1
inactive: [1] 6.2% | [2] 4.65% | [3] 7.4% | [4] -8.3% | [5] 4.25% | [6] 46.9%

CC(CCl)N1CCCCCC1C.O=[N+]([O-])c1cc([N+](=O)[O-])c(O)c([N+](=O)[O-])c1
inactive: [1] 13.8% | [2] 0.75% | [3] -6.15% | [4] -12.2% | [5] 0.1% | [6] 20.3%

CCN(CC)CCOC(=O)C(O)(c1ccccc1)c1ccc(C)cc1C (centres undefined)
inactive: [1] 15% | [2] -10% | [3] -5.3% | [4] -16.4% | [5] -11.3% | [6] 14%

CN1C2CC(O)CC1C1OC12.O=[N+]([O-])c1cc([N+](=O)[O-])c(O)c([N+](=O)[O-])c1
inactive: [1] -19.4% | [2] -4.2% | [3] -15.2% | [4] -28.3% | [5] -0.7% | [6] -4.3%

O=[N+]([O-])c1nc(-c2nc([N+](=O)[O-])c([N+](=O)[O-])[nH]2)[nH]c1[N+](=O)[O-]
inactive: [1] 20.2% | [2] 4.55% | [3] 24.4% | [4] 4.3% | [5] 11.8% | [6] 22.6%

CN1CCCC1.O=[N+]([O-])c1cc([N+](=O)[O-])c(O)c([N+](=O)[O-])c1
inactive: [1] 3.9% | [2] -2.9% | [3] 14.4% | [4] 7.85% | [5] 8.6% | [6] 11.7%

O=C(O)C1(O)c2ccccc2-c2ccccc21
inactive: [1] 35.1% | [2] -0.3% | [3] -19.9% | [4] 9.95% | [5] 20.4% | [6] 17.9%

Cc1cc2ccc3ccccc3c2c2ccccc12.O=C1c2cc([N+](=O)[O-])ccc2-c2c1cc([N+](=O)[O-])cc2[N+](=O)[O-]
inactive: [1] 23.7% | [2] 11.6% | [3] 20.6% | [4] -8.6% | [5] 35% | [6] 47.5%

CCCC[PH+](CCCC)CCCC.CS(=O)[O-].[C-]#[O+].[Fe+6].[c-]1[c-][c-][cH-][c-]1
inactive: [1] 23.1% | [2] 18.1% | [3] 17.9% | [4] 6.15% | [5] 2.55% | [6] 8.2%

CCCCCCCCCCCCOP(=O)(CCC)OCCCCCCCCCCCC
inactive: [1] 28.9% | [2] 19% | [3] 3% | [4] 19.8% | [5] -4.2% | [6] 34.8%

CN(CN(CN(CCl)[N+](=O)[O-])[N+](=O)[O-])[N+](=O)[O-]
inactive: [1] 14.2% | [2] -4.15% | [3] 7.85% | [4] 6.75% | [5] 10.1% | [6] 20.4%

CCN(CC)CCOC(=O)C(O)(c1ccccc1)c1c(C)c(C)c(C)c(C)c1C (centres undefined)
inactive: [1] 17.3% | [2] -7.3% | [3] 10.8% | [4] -1.5% | [5] -1.55% | [6] 11.8%
